# Ab-14 light chain CDR variants: yeast mating affinities

Reference: Li et al. 2023, doi:10.1038/s41467-023-39022-2. File: FLAb, binding data.

Target: peptide PDVDLGDISGINAS, taken from heptad repeat 2 (HR2) of SARS-CoV-2 spike.

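The parent was found by panning a naive human phage display library on the peptide. This is the validation round: designs drawn from the data on random variants, tested in the same kind of assay. Their group label is 14L_GP_HC (GP: Gaussian process model; HC: hill climbing; a sequence that several methods proposed may carry one label only). The assay is AlphaSeq: two haploid yeast populations carry antibody and antigen on their surface. Mating (16 h, 30 °C) was followed by selection of diploids and sequencing of their barcodes. Each replicate has its own calibration line, from reference interactions of the BCL2 family. Mating was done six times.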

Each scFv is VH, a (GGGGS)3 linker, VL, as in the parent Ab-14, and differs from it in the CDRs of the light chain only.
VH: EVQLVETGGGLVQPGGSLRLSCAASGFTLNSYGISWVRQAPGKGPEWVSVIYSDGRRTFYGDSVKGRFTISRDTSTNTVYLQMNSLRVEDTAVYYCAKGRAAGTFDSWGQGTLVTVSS
VL: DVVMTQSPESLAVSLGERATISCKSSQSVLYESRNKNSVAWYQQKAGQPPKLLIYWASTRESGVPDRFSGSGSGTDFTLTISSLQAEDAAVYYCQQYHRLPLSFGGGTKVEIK

The parent's light chain CDRs are KSSQSVLYESRNKNSVA, WASTRES, QQYHRLPLS; each variant's own CDRs replace them letter for letter.
Scale: log10 of Kd in nM, estimated from mating counts; low values are strong binders.
As a blank, each scFv also met three strains without target: over all light chain designs, 4% of these pairings were detected, typically at 2.64 and seldom below 1.59. Also given: how often the same scFv was detected with the empty control strains, with their mean in brackets.

CDR-L1 | CDR-L2 | CDR-L3 | log10 Kd (nM) by replicate | empty controls
KSSQSVLYEDRVKNSVA | GAQTRES | QQYHRLPLS | 0.18 -0.54 -0.68 0.26 -0.09 -0.35 | 0/18
KASQSELYESRNKNSVA | GASTRES | QQYHRLPLI | 0.42 0.16 -0.18 0.85 0.82 0.44 | 0/18
KSSISFLYESMNKNSVA | EASTRES | QQYHRLPLS | 0.78 1.18 1.29 0.67 0.77 0.77 | 0/18
KQSQEWLYESRNKNSVA | DASTRES | QQYHRLPLS | -0.37 -0.48 -0.49 -0.65 -0.56 -0.36 | 1/18 (3.38)
KSSMSQLYESRNKNSVA | GASTRES | QQYHRLPLS | 0.26 -0.11 0.19 -0.13 -0.19 0.20 | 1/18 (1.85)
KSSQSYLYESGNKNSVA | HASTRES | QQYHRLPLS | -0.02 0.13 0.20 0.40 0.01 0.67 | 0/18
KSVQSWLYESRNKNSVA | HASQREQ | QQYHRLPLS | 0.22 0.57 -0.03 0.43 0.66 0.15 | 1/18 (2.23)
KAEQGDLYESRNKNSVA | GASTRES | QQYHRLPLS | -0.40 -0.26 -0.38 -0.56 -0.54 -0.13 | 2/18 (2.41)
KFSQSVKMESRNKNSVA | DASTRES | QQYHRLPLS | 0.34 0.05 -0.15 -0.02 -0.01 -0.14 | 1/18 (2.30)
KSSISYLEESRNKNSVA | EASTREV | QQYHRLPLS | 0.07 0.02 -0.04 -0.20 -0.33 -0.15 | 0/18
KMSQSVLMEDRNKNSVA | DASLRES | QQYHRLPLS | -0.16 -0.22 -0.34 -0.28 -0.34 0.00 | 1/18 (2.59)
KQSQSVLYESRNKNSVA | MASQRES | QQYHRLPLS | 1.22 1.27 1.09 1.08 1.81 0.82 | 0/18
KFSQSVLYESRTKNSVA | NAVTRET | QQYHRLPLS | -0.10 -0.06 -0.33 -0.43 -0.19 0.02 | 0/18
KLSQSVLFESRNKNSVA | DASTRES | QQYHRLPLS | -0.29 -0.40 -0.58 -0.57 -0.55 -0.41 | 1/18 (4.84)
KLSQSCLYDSRNKNSVA | NASTRES | QQYHRLPLS | -0.19 -0.16 -0.09 -0.24 -0.28 -0.06 | 2/18 (2.47)
KFSQSVLYESRDKNSVA | EASTRES | QQYHRLPLS | 0.21 0.23 -0.02 0.03 0.08 0.35 | 1/18 (2.44)
KLSISYLYESRNENSVA | EASTREQ | QQYHRLPLS | -0.54 -0.18 -0.62 -0.58 -0.52 -0.17 | 0/18
KLRQSTEYESRNQNSVA | WASTRES | QQYHRLPLS | 1.34 1.43 3.11 0.95 3.67 1.69 | 0/18
KLRQSTKYESRNANSVA | SASTRES | QQYHRLPLS | 0.28 0.21 0.21 -0.05 -0.10 0.06 | 0/18
KSSISYLSESRNKNSVA | EASTRES | QQYHRLPLS | -0.24 0.51 -0.01 -0.25 -0.42 -0.49 | 0/18
KASQSVLGEQRNKNSVA | DISTRES | QQYHRLPLS | 0.14 0.05 0.00 -0.12 -0.08 0.20 | 0/18
KFSQSVLYESRMKNGVA | NASTRES | QQYHRLPLS | 0.16 -0.21 -0.31 -0.26 -0.20 -0.02 | 4/18 (2.31)
KDSQSVLFQSRNKNSVA | DASTRES | QQYHRLPLS | 1.33 0.52 0.40 0.19 0.40 0.39 | 2/18 (1.87)
KLGTGVLYESRNKNSVA | GASTRES | QQYHRLPLS | -0.14 -0.52 -0.35 -0.36 -0.37 -0.41 | 2/18 (2.99)
KSSISVPYESMNKNSVA | EASTRES | QQYHRLPLS | 0.54 0.55 0.28 0.32 0.18 0.57 | 4/18 (2.62)
KSSFSVLFQSRNKNSVA | DASTRES | QQYHRLPLS | 0.46 0.39 0.63 0.05 0.28 0.47 | 3/18 (2.84)
HSSPSVAYESRNKNSVA | NASTRET | QQYHRLPLS | 0.71 0.55 0.51 0.75 0.32 0.54 | 2/18 (2.90)
KSSQSVSMESRNKNSVA | DASTRES | QQYHRLPLS | 0.35 0.24 0.26 0.14 0.18 0.30 | 0/18
KSSWSELYESRNKNSVA | DASTRES | QQYHRLPLS | -0.31 -0.30 -0.71 -0.52 -0.42 -0.48 | 2/18 (2.36)
KSGQEVLYQSRNKNSVA | GASTRES | QQYHRLPLS | 0.33 0.14 0.13 0.08 0.25 0.32 | 3/18 (2.77)
HQSPSVLYESRNKNSVA | NGSTREM | QQYHRLPLS | 0.06 0.05 -0.11 -0.19 -0.13 -0.07 | 1/18 (3.10)
KLRMSMLYESRNKNSVA | NASTRES | QQYHRLPLS | -0.14 -0.17 0.06 -0.04 -0.14 0.07 | 1/18 (2.49)
KSSTSGLYESRMKNSVA | EASTRES | QQYHRLPLS | -0.05 -0.05 -0.23 -0.24 0.05 0.28 | 1/18 (2.59)
KQSQSVLYESSNKNQVA | DASTRES | QQYHRLPLS | 0.56 0.67 0.35 0.66 0.41 0.89 | 0/18
KSSQSFLYESRNKNSVA | GASTRES | QQYHRLPLH | 0.39 0.47 0.44 0.24 0.35 0.65 | 1/18 (3.29)
KLLQSVLYESRNKNSVA | HASTRED | QQYHRLPLS | 0.35 -0.08 0.08 0.00 0.11 0.29 | 1/18 (3.05)
KVSISYLLESRNKNSVA | DASTRES | QQYHRLPLS | -0.18 -0.42 -0.25 -0.60 -0.46 -0.12 | 2/18 (2.87)
KSLQSVLYESRNKNSVA | GASTRCD | QQYHRLPLS | -0.10 -0.19 -0.12 -0.18 -0.31 -0.01 | 2/18 (3.73)
KSLQSQLYESRDKNSVA | HASTRED | QQYHRLPLS | 0.15 -0.15 0.29 -0.05 -0.23 0.06 | 1/18 (3.38)
KSSSSGLYESRMKNSVA | EASTRES | QQYHRLPLS | 0.19 -0.40 1.04 -0.34 -0.02 -0.18 | 0/18
KSSQSWGYESRNKNSVA | NASTRES | QQYHRLPLS | -0.02 -0.08 -0.02 -0.16 0.01 -0.19 | 1/18 (2.63)

Repeated from above, the 4 best binders with a signal in all replicates:

{"CDR-L1": "KQSQEWLYESRNKNSVA", "CDR-L2": "DASTRES", "CDR-L3": "QQYHRLPLS", "log10 Kd (nM) by replicate": "-0.37 -0.48 -0.49 -0.65 -0.56 -0.36", "empty controls": "1/18 (3.38)"}
{"CDR-L1": "KLSQSVLFESRNKNSVA", "CDR-L2": "DASTRES", "CDR-L3": "QQYHRLPLS", "log10 Kd (nM) by replicate": "-0.29 -0.40 -0.58 -0.57 -0.55 -0.41", "empty controls": "1/18 (4.84)"}
{"CDR-L1": "KSSWSELYESRNKNSVA", "CDR-L2": "DASTRES", "CDR-L3": "QQYHRLPLS", "log10 Kd (nM) by replicate": "-0.31 -0.30 -0.71 -0.52 -0.42 -0.48", "empty controls": "2/18 (2.36)"}
{"CDR-L1": "KLSISYLYESRNENSVA", "CDR-L2": "EASTREQ", "CDR-L3": "QQYHRLPLS", "log10 Kd (nM) by replicate": "-0.54 -0.18 -0.62 -0.58 -0.52 -0.17", "empty controls": "0/18"}

The authors' rule: three or more of the six replicates give a measured affinity, fewer mean a poor binder.
The parent sequence was in this pool as ten entries: three were never detected, three once, and four in most replicates, with averages from 0.34 to 2.37.
A sequence measured in both rounds can read differently, since the two assays cover different ranges.